Test results: ChEMBL document CHEMBL1129657, “Tetrahydrobenzothiophenone derivatives as a novel class of adenosine receptor antagonists” (J Med Chem, 1996)

Sequences of proteins named here, by UniProt entry; tags and fusion partners are left off.
UniProt P25099, whole entry: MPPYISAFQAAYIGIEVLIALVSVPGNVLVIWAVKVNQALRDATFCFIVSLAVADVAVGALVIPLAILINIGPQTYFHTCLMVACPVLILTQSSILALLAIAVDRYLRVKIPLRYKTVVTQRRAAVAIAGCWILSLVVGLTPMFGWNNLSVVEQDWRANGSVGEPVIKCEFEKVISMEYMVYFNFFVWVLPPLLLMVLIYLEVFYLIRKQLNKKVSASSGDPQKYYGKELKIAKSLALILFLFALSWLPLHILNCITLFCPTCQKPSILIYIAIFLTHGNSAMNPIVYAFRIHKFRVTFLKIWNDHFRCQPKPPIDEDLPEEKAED

Biological target: Adenosine receptor A1 (Rattus norvegicus, UniProt P25099)
Assay: Tested for the displacement [3H]PIA from Adenosine A1 receptor in rat brain membrane
Type: cell membranes

Compound O=c1c(-c2ccc(O)cc2)coc2cc(O)cc(O)c12 [GENISTEIN] has a Ki of 5000 nM.
Nc1nc2ccc(Cl)cc2c2nc(-c3ccco3)nn12 [CGS-15943] gave a Ki of 270 nM.
